# Laboratory results taken from PMC6597003 (ACS chemical biology, 2018).
# Amino acid sequences for entries named in this document (tags omitted). Residues count along the entry.
# UniProt P29317, 23-202: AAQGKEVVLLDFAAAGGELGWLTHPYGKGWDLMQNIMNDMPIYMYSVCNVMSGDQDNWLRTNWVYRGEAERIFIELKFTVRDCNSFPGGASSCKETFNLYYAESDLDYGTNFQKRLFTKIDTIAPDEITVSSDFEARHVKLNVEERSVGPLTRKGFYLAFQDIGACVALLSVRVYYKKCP
# Target: ephrin type-A receptor 2 ligand-binding domain (UniProt P29317)
# Experiment: DELFIA displacement assay
# Conditions: not given
row,Molecule,IC50 [µM]
1,135F11 (peptide),> 200
2,135F4 (peptide),5.6
3,135F8 (peptide),7.6
4,135H2 (peptide),1.7
5,135F12 (peptide),4.1
6,135F3 (peptide),1.5

# Tested on: not given
# Experiment: not given
# Conditions: cited from earlier work
row,Molecule,stability in plasma
1,CSCC[C@H](NC(=O)[C@H](CCSC)NC(=O)[C@@H]1CCCN1C(=O)[C@@H](NC(=O)[C@H](CO)NC(=O)[C@H](CC(=O)O)NC(=O)[C@@H]1CCCN1C(=O)[C@H](Cc1ccc(O)cc1)NC(=O)[C@H](C)NC(=O)[C@H](CO)NC(=O)[C@@H](N)Cc1ccc(O)cc1)C(C)C)C(=O)N[C@@H](CO)C(N)=O [YSA],fairly unstable in plasma with rapid hydrolysis by amino-peptidases

# Target: T1, ephrin type-A receptor 2 ligand-binding domain (UniProt P29317 23-202)
# Experiment: DELFIA displacement assay
# Conditions: not given
row,Molecule,IC50 [µM]
1,FTPFTLGKEFKE (C-terminal amide) [ephrin A1 peptide],> 200
2,YSAYPDSVEFRP (C-terminal amide) [135A8],36.3
3,YSAYPDSVPFMS (C-terminal amide) [135C1],7.5
4,YSAYPDSVPFRS (C-terminal amide) [135C3],4.4
5,YSAYPDSVPFR (C-terminal amide) [135C4],4.9
6,YSAYPDSVPMRS (C-terminal amide) [135C7],8.8
7,YSAYPDSVPMRP (C-terminal amide) [135C8],8.4
8,YSAYPDSVPMMP (C-terminal amide) [135C9],11.8
9,YSAYPDSVPFMP (C-terminal amide) [135C10],4.6
10,"SAYPDSVPFRP (position 1: (4-F,3-C1PhOCH2CO) acyl cap (not in the letters, which begin at position 2); C-terminal amide) [135E2]",3.1
11,YSAYPDSVPFFP (position 11: 4-Amino-Phe (X); C-terminal amide) [135E10],2.3
12,YSAYPDSVPFFP (position 11: 4-Amimo-Methy1-Phe as printed (X); C-terminal amide) [135E11],1.3
13,YSAYPDSVPFKP (C-terminal amide) [135F1],1.5
14,"YSAFPDSVPFRP (position 4: 3C1Phe as printed, 3-chloro-Phe (X); C-terminal amide) [135F6]",11.4
15,FTPFSLGFEFRP (C-terminal amide) [ephrins A2/A5/A4 peptide],> 200
16,YSAFSLGYEFHA (C-terminal amide) [ephrin A3 peptide],> 200
17,FSPNLWGLEFQK (C-terminal amide) [ephrin B2 peptide],> 200

# Target: T1, ephrin type-A receptor 2 ligand-binding …
# Experiment: DELFIA displacement assay
# Conditions: not given
# Remark: another data set of the same source
row,Molecule,IC50 [µM]
1,YCAYPDCVPFRP (cyclic: disulfide bridge between Cys at position 2 and Cys at position 7; C-terminal amide) [135G8],32.9
